{"sequences": {"note": "The chains behind the UniProt entries cited, without tags or fusion partners.", "UniProt Q9BE39, whole entry": "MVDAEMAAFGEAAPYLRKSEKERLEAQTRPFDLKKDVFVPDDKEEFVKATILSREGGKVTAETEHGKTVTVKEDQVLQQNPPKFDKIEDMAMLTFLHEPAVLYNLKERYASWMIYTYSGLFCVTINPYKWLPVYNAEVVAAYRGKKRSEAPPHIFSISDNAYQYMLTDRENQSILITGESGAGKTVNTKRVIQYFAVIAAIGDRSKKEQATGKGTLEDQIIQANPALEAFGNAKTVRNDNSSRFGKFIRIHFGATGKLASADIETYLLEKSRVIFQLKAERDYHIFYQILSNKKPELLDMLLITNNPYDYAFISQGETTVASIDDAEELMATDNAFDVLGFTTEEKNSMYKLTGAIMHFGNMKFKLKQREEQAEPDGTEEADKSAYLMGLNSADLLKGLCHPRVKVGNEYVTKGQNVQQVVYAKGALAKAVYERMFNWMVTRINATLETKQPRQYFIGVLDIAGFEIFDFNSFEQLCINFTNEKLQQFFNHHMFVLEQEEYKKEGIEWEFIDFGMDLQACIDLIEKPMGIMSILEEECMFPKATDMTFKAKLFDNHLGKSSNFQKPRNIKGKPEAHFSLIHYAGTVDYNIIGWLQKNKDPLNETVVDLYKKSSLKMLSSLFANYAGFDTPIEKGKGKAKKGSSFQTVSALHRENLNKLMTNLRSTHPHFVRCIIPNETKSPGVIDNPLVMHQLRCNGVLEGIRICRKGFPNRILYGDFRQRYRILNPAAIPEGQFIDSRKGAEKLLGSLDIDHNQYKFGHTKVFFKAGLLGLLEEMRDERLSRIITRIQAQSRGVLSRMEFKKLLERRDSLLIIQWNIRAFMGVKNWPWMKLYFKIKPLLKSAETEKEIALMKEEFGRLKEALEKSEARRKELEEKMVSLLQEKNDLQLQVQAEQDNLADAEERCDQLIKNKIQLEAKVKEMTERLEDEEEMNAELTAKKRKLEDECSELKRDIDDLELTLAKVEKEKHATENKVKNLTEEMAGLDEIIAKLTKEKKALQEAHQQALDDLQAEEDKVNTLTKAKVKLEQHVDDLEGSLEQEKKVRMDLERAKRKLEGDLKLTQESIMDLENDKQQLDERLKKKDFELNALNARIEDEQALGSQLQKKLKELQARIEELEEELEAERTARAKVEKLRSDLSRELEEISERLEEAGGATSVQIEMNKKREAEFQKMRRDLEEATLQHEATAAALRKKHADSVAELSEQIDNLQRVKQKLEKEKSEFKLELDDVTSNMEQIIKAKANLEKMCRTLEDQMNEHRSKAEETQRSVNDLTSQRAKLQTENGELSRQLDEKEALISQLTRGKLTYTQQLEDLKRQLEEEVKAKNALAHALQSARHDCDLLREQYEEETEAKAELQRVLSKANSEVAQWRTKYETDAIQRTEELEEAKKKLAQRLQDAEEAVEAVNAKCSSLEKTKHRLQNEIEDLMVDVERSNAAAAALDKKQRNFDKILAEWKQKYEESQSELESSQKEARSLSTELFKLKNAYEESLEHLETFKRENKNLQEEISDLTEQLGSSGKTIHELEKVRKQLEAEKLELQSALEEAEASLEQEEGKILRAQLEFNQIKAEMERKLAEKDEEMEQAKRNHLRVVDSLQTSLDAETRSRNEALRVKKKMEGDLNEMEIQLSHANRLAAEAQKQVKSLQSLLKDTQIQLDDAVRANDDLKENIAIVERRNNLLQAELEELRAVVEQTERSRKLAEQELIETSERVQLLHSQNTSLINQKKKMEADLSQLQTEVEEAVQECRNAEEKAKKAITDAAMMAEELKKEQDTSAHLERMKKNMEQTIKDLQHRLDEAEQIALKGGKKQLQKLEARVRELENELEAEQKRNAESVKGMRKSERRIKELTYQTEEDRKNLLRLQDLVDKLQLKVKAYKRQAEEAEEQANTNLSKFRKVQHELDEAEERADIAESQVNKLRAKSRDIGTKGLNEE", "UniProt Q3SZE5, whole entry partner": "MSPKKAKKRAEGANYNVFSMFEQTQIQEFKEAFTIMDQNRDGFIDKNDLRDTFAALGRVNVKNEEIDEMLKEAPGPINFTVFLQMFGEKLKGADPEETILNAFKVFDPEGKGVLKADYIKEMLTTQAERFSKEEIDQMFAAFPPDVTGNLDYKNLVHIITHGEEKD", "UniProt P85100, whole entry partner": "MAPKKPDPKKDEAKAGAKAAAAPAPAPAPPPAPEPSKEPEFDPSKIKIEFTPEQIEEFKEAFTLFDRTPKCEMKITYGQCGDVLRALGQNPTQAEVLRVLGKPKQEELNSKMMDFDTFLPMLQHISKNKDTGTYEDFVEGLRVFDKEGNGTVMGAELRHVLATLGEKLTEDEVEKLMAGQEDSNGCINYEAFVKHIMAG"}, "source": "patent EP4847505A1", "about": "“4-METHYLSULFONYL-SUBSTITUTED PIPERIDINE UREA COMPOUNDS” (dated 2026)"}
{"biological_target": "bovine cardiac myosin (Bos taurus, UniProt Q9BE39)", "experiment": "Myosin activation assay (PK/LDH-coupled ATPase, bovine cardiac myofibrils)", "conditions": "concentration at which the total response is increased by twenty percent"}
{"compound": "Cn1cc(S(=O)(=O)[C@@](C)(F)C2CCN(C(=O)Nc3ccon3)CC2)c(C(F)F)n1", "Myosin Activation (AC20)": "+++ (+++ represents myosin activation value AC20 < 2 µM)"}
{"compound": "CC(C)(C1CCN(C(=O)Nc2cn[nH]c2)CC1)S(=O)(=O)c1cccc(F)c1", "Myosin Activation (AC20)": "++ (++ represents myosin activation value AC20 from 2 µM - 5 µM)"}
{"compound": "O=C(Nc1ccnnc1)N1CCC(F)(C2(S(=O)(=O)c3cccc(F)c3)CCC2)CC1", "Myosin Activation (AC20)": "++ (++ represents myosin activation value AC20 from 2 µM - 5 µM)"}
{"compound": "C[C@](F)(C1CCN(C(=O)Nc2ccon2)CC1)S(=O)(=O)c1ccc(C(F)(F)F)nc1", "Myosin Activation (AC20)": "++ (++ represents myosin activation value AC20 from 2 µM - 5 µM)"}
{"compound": "Cn1nccc1S(=O)(=O)C(C)(C)C1CCN(C(=O)Nc2cnns2)CC1", "Myosin Activation (AC20)": "+++ (+++ represents myosin activation value AC20 < 2 µM)"}
{"compound": "Cn1cc(S(=O)(=O)C(C)(C)C2CCN(C(=O)Nc3ccon3)CC2)c(Cl)n1", "Myosin Activation (AC20)": "+ (+ represents myosin activation value AC20 > 5 µM)"}
{"compound": "Cc1ccc(NC(=O)N2CCC(C(C)(F)S(=O)(=O)c3cc(C(F)F)nn3C)CC2)cn1", "note": "(stereo not drawn)", "Myosin Activation (AC20)": "++ (++ represents myosin activation value AC20 from 2 µM - 5 µM)"}
{"compound": "Cn1cc(S(=O)(=O)C(C)(F)C2CCN(C(=O)Nc3ccc(F)nc3)CC2)c(C(F)(F)F)n1", "note": "(stereo not drawn)", "Myosin Activation (AC20)": "+ (+ represents myosin activation value AC20 > 5 µM)"}
{"compound": "CCn1nccc1S(=O)(=O)C(C)(F)C1CCN(C(=O)Nc2ccnnc2)CC1", "note": "(stereo not drawn)", "Myosin Activation (AC20)": "++ (++ represents myosin activation value AC20 from 2 µM - 5 µM)"}
{"compound": "O=C(Nc1ccnnc1)N1CCC(C(F)(F)S(=O)(=O)c2cc(OC(F)(F)F)ccc2Cl)CC1", "Myosin Activation (AC20)": "+++ (+++ represents myosin activation value AC20 < 2 µM)"}
{"compound": "CC(F)(C1CCN(C(=O)Nc2ccnnc2)CC1)S(=O)(=O)c1cccc(Cl)c1", "note": "(stereo not drawn)", "Myosin Activation (AC20)": "+++ (+++ represents myosin activation value AC20 < 2 µM)"}
{"compound": "O=C(Nc1ccnnc1)N1CCC(C(F)(F)S(=O)(=O)c2cccn3ccnc23)CC1", "Myosin Activation (AC20)": "+ (+ represents myosin activation value AC20 > 5 µM)"}
{"compound": "O=C(Nc1ccnnc1)N1CCC(C2(S(=O)(=O)c3cccc(F)c3)CCC2)CC1", "Myosin Activation (AC20)": "+++ (+++ represents myosin activation value AC20 < 2 µM)"}
{"compound": "CC(C)(C1CCN(C(=O)Nc2cccnc2)CC1)S(=O)(=O)c1cccc(F)c1", "Myosin Activation (AC20)": "++ (++ represents myosin activation value AC20 from 2 µM - 5 µM)"}
{"compound": "COc1c(F)cccc1S(=O)(=O)C(F)(F)C1CCN(C(=O)Nc2ccnnc2)CC1", "Myosin Activation (AC20)": "++ (++ represents myosin activation value AC20 from 2 µM - 5 µM)"}
{"compound": "O=C(Nc1ccnnc1)N1CCC(C(F)(F)S(=O)(=O)c2ccccc2C(F)F)CC1", "Myosin Activation (AC20)": "++ (++ represents myosin activation value AC20 from 2 µM - 5 µM)"}
{"compound": "CC(C)(C1CCN(C(=O)Nc2ccns2)CC1)S(=O)(=O)c1cccc(F)c1", "Myosin Activation (AC20)": "++ (++ represents myosin activation value AC20 from 2 µM - 5 µM)"}
{"compound": "N#Cc1ccc(S(=O)(=O)C(F)(F)C2CCN(C(=O)Nc3ccnnc3)CC2)c(Cl)c1", "Myosin Activation (AC20)": "++ (++ represents myosin activation value AC20 from 2 µM - 5 µM)"}
{"compound": "O=C(Nc1ccnnc1)N1CCC(C(F)(F)S(=O)(=O)c2ccc(C3CC3)nc2)CC1", "Myosin Activation (AC20)": "++ (++ represents myosin activation value AC20 from 2 µM - 5 µM)"}
{"compound": "Cn1cnc(S(=O)(=O)C(C)(F)C2CCN(C(=O)Nc3ccnnc3)CC2)c1", "note": "(stereo not drawn)", "Myosin Activation (AC20)": "+ (+ represents myosin activation value AC20 > 5 µM)"}
{"compound": "CC(C)(C1CCN(C(=O)Nc2ccns2)CC1)S(=O)(=O)c1ccccc1C#N", "Myosin Activation (AC20)": "+ (+ represents myosin activation value AC20 > 5 µM)"}
{"compound": "CC(F)(C1CCN(C(=O)Nc2cnns2)CC1)S(=O)(=O)c1ccc(C(F)(F)F)cc1", "note": "(stereo not drawn)", "Myosin Activation (AC20)": "+++ (+++ represents myosin activation value AC20 < 2 µM)"}
{"compound": "Cn1nc(C(F)(F)F)cc1S(=O)(=O)[C@@](C)(F)C1CCN(C(=O)Nc2ccon2)CC1", "Myosin Activation (AC20)": "+++ (+++ represents myosin activation value AC20 < 2 µM)"}
{"compound": "COc1ccc(S(=O)(=O)[C@@](C)(F)C2CCN(C(=O)Nc3ccon3)CC2)cn1", "Myosin Activation (AC20)": "++ (++ represents myosin activation value AC20 from 2 µM - 5 µM)"}
{"compound": "Cn1nc(C(F)(F)F)cc1S(=O)(=O)[C@@](C)(F)C1CCN(C(=O)Nc2ccnc(F)c2)CC1", "Myosin Activation (AC20)": "+++ (+++ represents myosin activation value AC20 < 2 µM)"}
{"compound": "Cc1ccccc1S(=O)(=O)C(C)(C)C1CCN(C(=O)Nc2ccns2)CC1", "Myosin Activation (AC20)": "+++ (+++ represents myosin activation value AC20 < 2 µM)"}
{"compound": "CCn1nccc1S(=O)(=O)C(C)(C)C1CCN(C(=O)Nc2ccnnc2)CC1", "Myosin Activation (AC20)": "+ (+ represents myosin activation value AC20 > 5 µM)"}
{"compound": "4-(1-Fluoro-1-((3-fluorophenyl)sulfonyl)ethyl)-N-(1-methyl-1H-pyrazol-4-yl)piperidine-1-carboxamide", "Myosin Activation (AC20)": "+ (+ represents myosin activation value AC20 > 5 µM)"}
{"compound": "COc1ccc(F)cc1S(=O)(=O)C(F)(F)C1CCN(C(=O)Nc2ccnnc2)CC1", "Myosin Activation (AC20)": "+ (+ represents myosin activation value AC20 > 5 µM)"}
{"compound": "CC(F)(F)C(C)(C1CCN(C(=O)Nc2ccnnc2)CC1)S(=O)(=O)c1cccc(F)c1", "note": "(stereo not drawn)", "Myosin Activation (AC20)": "+++ (+++ represents myosin activation value AC20 < 2 µM)"}
{"compound": "Cc1cc(NC(=O)N2CCC([C@](C)(F)S(=O)(=O)c3cn(C)nc3C(F)F)CC2)ccn1", "Myosin Activation (AC20)": "+++ (+++ represents myosin activation value AC20 < 2 µM)"}
{"compound": "Cc1ccc(NC(=O)N2CCC(C(C)(C)S(=O)(=O)c3cccc(F)c3)CC2)cn1", "Myosin Activation (AC20)": "+ (+ represents myosin activation value AC20 > 5 µM)"}
{"compound": "Cc1ccc(NC(=O)N2CCC([C@](C)(F)S(=O)(=O)c3cn(C)nc3C(F)F)CC2)cn1", "Myosin Activation (AC20)": "++ (++ represents myosin activation value AC20 from 2 µM - 5 µM)"}
{"compound": "CC(C)(C1CCN(C(=O)Nc2ccnnc2)CC1)S(=O)(=O)c1ccc2ccnn2c1", "Myosin Activation (AC20)": "+++ (+++ represents myosin activation value AC20 < 2 µM)"}
{"compound": "CC(F)(C1CCN(C(=O)Nc2cnns2)CC1)S(=O)(=O)c1cccc(F)c1", "note": "(stereo not drawn)", "Myosin Activation (AC20)": "+++ (+++ represents myosin activation value AC20 < 2 µM)"}
{"compound": "C[C@H](O)c1cc(NC(=O)N2CCC([C@](C)(F)S(=O)(=O)c3cccc(F)c3)CC2)ccn1", "Myosin Activation (AC20)": "+ (+ represents myosin activation value AC20 > 5 µM)"}
{"compound": "COc1ccccc1S(=O)(=O)C(C)(C)C1CCN(C(=O)Nc2ccns2)CC1", "Myosin Activation (AC20)": "++ (++ represents myosin activation value AC20 from 2 µM - 5 µM)"}
{"compound": "O=C(Nc1ccnnc1)N1CCC(C(F)(F)S(=O)(=O)c2ccc(C(F)(F)F)c(F)c2)CC1", "Myosin Activation (AC20)": "++ (++ represents myosin activation value AC20 from 2 µM - 5 µM)"}
{"compound": "CC(C)(C1CCN(C(=O)Nc2ccncc2F)CC1)S(=O)(=O)c1cccc(F)c1", "Myosin Activation (AC20)": "+ (+ represents myosin activation value AC20 > 5 µM)"}
{"compound": "[2H]C([2H])([2H])n1cc(S(=O)(=O)[C@](F)(C2CCN(C(=O)Nc3ccon3)CC2)C([2H])([2H])[2H])c(C(F)F)n1", "Myosin Activation (AC20)": "+ (+ represents myosin activation value AC20 > 5 µM)"}
{"compound": "Cc1ccc(NC(=O)N2CCC(C(C)(C)S(=O)(=O)c3cccc(F)c3)CC2)nn1", "Myosin Activation (AC20)": "+ (+ represents myosin activation value AC20 > 5 µM)"}
{"compound": "Cc1ccc(NC(=O)N2CCC(C(C)(C)S(=O)(=O)c3cc(C(F)(F)F)nn3C)CC2)cn1", "Myosin Activation (AC20)": "++ (++ represents myosin activation value AC20 from 2 µM - 5 µM)"}
{"compound": "Cn1cc(S(=O)(=O)C2(C3CCN(C(=O)Nc4ccnnc4)CC3)CCC2)c(C(F)F)n1", "Myosin Activation (AC20)": "+++ (+++ represents myosin activation value AC20 < 2 µM)"}
{"compound": "Cn1cc(S(=O)(=O)C(C)(C)C2CCN(C(=O)Nc3cn[nH]c3)CC2)c(C(F)(F)F)n1", "Myosin Activation (AC20)": "++ (++ represents myosin activation value AC20 from 2 µM - 5 µM)"}
{"compound": "Cc1ccc(NC(=O)N2CCC([C@@](C)(F)S(=O)(=O)c3cn(C)nc3C(F)F)CC2)cn1", "Myosin Activation (AC20)": "+ (+ represents myosin activation value AC20 > 5 µM)"}
{"compound": "C[C@](F)(C1CCN(C(=O)Nc2ccnc(C#N)c2)CC1)S(=O)(=O)c1cccc(F)c1", "Myosin Activation (AC20)": "+ (+ represents myosin activation value AC20 > 5 µM)"}
{"compound": "CC(C)(C1CCN(C(=O)Nc2cnoc2)CC1)S(=O)(=O)c1cccc(F)c1", "Myosin Activation (AC20)": "+++ (+++ represents myosin activation value AC20 < 2 µM)"}
{"compound": "O=C(Nc1cncs1)N1CCC(CS(=O)(=O)c2cccc(F)c2)CC1", "Myosin Activation (AC20)": "+ (+ represents myosin activation value AC20 > 5 µM)"}
{"compound": "Cn1cc(S(=O)(=O)[C@@](C)(F)C2CCN(C(=O)Nc3cn[nH]c3)CC2)c(C(F)F)n1", "Myosin Activation (AC20)": "++ (++ represents myosin activation value AC20 from 2 µM - 5 µM)"}
{"compound": "COc1ncccc1S(=O)(=O)C(C)(C)C1CCN(C(=O)Nc2ccnnc2)CC1", "Myosin Activation (AC20)": "++ (++ represents myosin activation value AC20 from 2 µM - 5 µM)"}
{"compound": "Cn1cc(S(=O)(=O)[C@](C)(F)C2CCN(C(=O)Nc3ccnc(F)c3)CC2)c(C(F)F)n1", "Myosin Activation (AC20)": "+ (+ represents myosin activation value AC20 > 5 µM)"}
{"compound": "CC(C)(C1CCN(C(=O)Nc2cnns2)CC1)S(=O)(=O)c1ccc(C#N)cc1", "Myosin Activation (AC20)": "+++ (+++ represents myosin activation value AC20 < 2 µM)"}
{"compound": "N#Cc1ccc(S(=O)(=O)C(F)(F)C2CCN(C(=O)Nc3ccnnc3)CC2)cc1", "Myosin Activation (AC20)": "++ (++ represents myosin activation value AC20 from 2 µM - 5 µM)"}
{"compound": "Cc1cc(S(=O)(=O)C(C)(C)C2CCN(C(=O)Nc3cnns3)CC2)n(C)n1", "Myosin Activation (AC20)": "+++ (+++ represents myosin activation value AC20 < 2 µM)"}
{"compound": "CC(F)(C1CCN(C(=O)Nc2ccc(F)nc2)CC1)S(=O)(=O)c1ccc(C#N)cc1", "note": "(stereo not drawn)", "Myosin Activation (AC20)": "++ (++ represents myosin activation value AC20 from 2 µM - 5 µM)"}
{"compound": "CC(F)(C1CCN(C(=O)Nc2ccnnc2)CC1)S(=O)(=O)c1ccc(C#N)cc1", "note": "(stereo not drawn)", "Myosin Activation (AC20)": "+++ (+++ represents myosin activation value AC20 < 2 µM)"}
{"compound": "Cn1nc(C(F)(F)F)cc1S(=O)(=O)C(C)(F)C1CCN(C(=O)Nc2ccc(F)nc2)CC1", "note": "(stereo not drawn)", "Myosin Activation (AC20)": "++ (++ represents myosin activation value AC20 from 2 µM - 5 µM)"}
